This assay deals with Histone deacetylase 3 (Homo sapiens, UniProt O15379). The assay can be described thus: Inhibition of human KDAC3 using FITC-labeled p53 acetylated peptide as substrate after 60 mins by fluorescence assay.

Amino acid sequences for entries named in this document (tags omitted). A change or cut given only in a name is not applied to a line headed by its entry.
UniProt O15379: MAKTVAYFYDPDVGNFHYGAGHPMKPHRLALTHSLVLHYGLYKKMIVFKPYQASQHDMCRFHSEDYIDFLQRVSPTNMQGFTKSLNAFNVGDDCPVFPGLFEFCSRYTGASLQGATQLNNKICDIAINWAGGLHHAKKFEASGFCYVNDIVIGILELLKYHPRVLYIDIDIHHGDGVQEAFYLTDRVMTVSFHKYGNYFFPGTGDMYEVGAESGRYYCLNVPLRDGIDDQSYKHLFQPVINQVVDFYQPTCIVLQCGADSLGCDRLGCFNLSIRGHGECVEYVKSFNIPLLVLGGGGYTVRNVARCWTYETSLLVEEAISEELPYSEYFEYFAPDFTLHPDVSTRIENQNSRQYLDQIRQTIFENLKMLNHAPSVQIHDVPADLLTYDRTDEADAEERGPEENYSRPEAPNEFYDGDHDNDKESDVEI

This passage reports IC50 results from ChEMBL document CHEMBL3997794, “Design and synthesis of benzodiazepine analogs as isoform-selective human lysine deacetylase inhibitors” (Eur J Med Chem, 2017).

As for `O=C(O)CCCCN1C(=O)[C@H](CCC(=O)NC(c2ccccc2)(c2ccccc2)c2ccccc2)N=C(c2ccccc2)c2ccccc21`, the half-inhibitory concentration (IC50) (commonly the concentration needed to halve the response being measured) is greater than 30 µM.
